In PubChem BioAssay AID1347056 (Sanford-Burnham Center for Chemical Genomics, 2019):
This is a selection; strong and weak results do not stand in their true shares. Some salts or complexes appear as unconnected parts, following the source record. Activity calls are given as the source filed them.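 The calls were made as follows: active = compounds whose plate-normalised and pattern-corrected inhibition of the luciferase reporter signal at the single screening dose is 50% or more; inactive = the rest.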

Assay: inhibitors of TROY-driven NF-kB signaling, primary screen, Q293 LMP1-TROYcd cells, NF-kB luciferase, uHTS (AID 1347056)
Conditions: Q293 LMP1-TROYcd NF-kB luciferase reporter, 4 h; at 10 µM; active compounds read high
With CCCOc1ccc(NP(C)(=O)Oc2ccc(Cl)cc2)cc1 (stereo unspecified) the inhibition was inactive: -7.71%.
With COc1ccc(-c2ccccn2)cc1.O=[N+]([O-])c1cc([N+](=O)[O-])c(O)c([N+](=O)[O-])c1 the inhibition was inactive: -37.8%.
With CN1CCCCC1COC(=O)C1(O)c2ccccc2CCc2ccccc21 (stereo unspecified) the inhibition was inactive: -33.6%.
For COc1ccccc1OP(C)(=O)Nc1c(C)cccc1C (stereo unspecified), the inhibition was inactive: 10.3%.
In the case of O=[N+]([O-])c1cc([N+](=O)[O-])c(Nc2nnnn2CCO)c([N+](=O)[O-])c1, the inhibition is reported as inactive: -13.5%.
With CCOC(=O)C(CC)C1=NC(C)(C)Cc2ccccc21.O=[N+]([O-])c1cc([N+](=O)[O-])c(O)c([N+](=O)[O-])c1 (stereo unspecified) the inhibition was inactive: -2.67%.
For Cc1nc2ccc3ccccc3c2s1.O=[N+]([O-])c1cc([N+](=O)[O-])c(O)c([N+](=O)[O-])c1, the inhibition was inactive: -6.28%.
In the case of O=[N+]([O-])c1cc([N+](=O)[O-])c(-c2cnn(-c3ccccc3)c2)c([N+](=O)[O-])c1, the inhibition is reported as inactive: -5.33%.
In the case of CN(Cc1cccnc1)C(=O)COc1ccc(Cl)c(Cl)c1.O=[N+]([O-])c1cc([N+](=O)[O-])c(O)c([N+](=O)[O-])c1, the inhibition is reported as inactive: 2.59%.
In the case of O=[N+]([O-])c1cc([N+](=O)[O-])c(-n2nnc3ccccc32)c([N+](=O)[O-])c1, the inhibition is reported as inactive: 5.04%.
In the case of CP(=O)(Nc1cccc(Br)c1)Oc1ccccc1 (stereo unspecified), the inhibition is reported as inactive: 3.43%.
For Cc1cc(C)cc(OP(C)(=O)Nc2ccccn2)c1 (stereo unspecified), the inhibition was inactive: -0.1%.
In the case of Cc1ccc(C)c(NP(C)(=O)Oc2ccccc2)c1 (stereo unspecified), the inhibition is reported as inactive: -0.39%.
For Cc1cc(C)cc(OP(C)(=O)Nc2ccc(C)cc2C)c1 (stereo unspecified), the inhibition was inactive: -3.12%.
With CCOC(=O)c1ccc(NP(C)(=O)Oc2cc(C)cc(C)c2)cc1 (stereo unspecified) the inhibition was inactive: -0.42%.
In the case of COc1ccccc1OP(C)(=O)Nc1cccc(Br)c1 (stereo unspecified), the inhibition is reported as inactive: -20.8%.
For CC1=NCCc2c1[nH]c1ccccc21.O=[N+]([O-])c1cc([N+](=O)[O-])c(O)c([N+](=O)[O-])c1, the inhibition was inactive: 21.9%.
For O=C(O)c1cccc(Nc2c([N+](=O)[O-])cc([N+](=O)[O-])cc2[N+](=O)[O-])c1, the inhibition was inactive: -2.03%.
For O=[N+]([O-])c1cc([N+](=O)[O-])c(OC2CCCCC2O)c([N+](=O)[O-])c1 (stereo unspecified), the inhibition was inactive: -13.2%.
For CCCCCOc1ccc(NP(C)(=O)Oc2ccc(Cl)cc2Cl)cc1 (stereo unspecified), the inhibition was inactive: 1.37%.
With CP(=O)(Nc1ccccc1)Oc1ccc(F)cc1 (stereo unspecified) the inhibition was inactive: 18.6%.
For CCN(CC)CCCOC(=O)C(O)(c1ccccc1)C1CCCCC1 (stereo unspecified), the inhibition was inactive: 3.98%.
With Cc1c([N+](=O)[O-])cc([N+](=O)[O-])c(Br)c1[N+](=O)[O-] the inhibition was inactive: 9.96%.
In the case of COc1ccc(OP(C)(=O)Nc2ccc(SC(F)(F)F)cc2)cc1 (stereo unspecified), the inhibition is reported as inactive: 14.8%.
With CCOC(=O)c1ccc(NP(C)(=O)Oc2ccc(F)cc2)cc1 (stereo unspecified) the inhibition was inactive: 5.21%.
In the case of CCN(CC)CCCNc1ccccc1[N+](=O)[O-].O=[N+]([O-])c1cc([N+](=O)[O-])c(O)c([N+](=O)[O-])c1, the inhibition is reported as inactive: -16.1%.
In the case of COc1ccc2c(c1O)-c1c(O)c(OC)cc3c1[C@H](C2)[N+](C)(C)CC3.O=[N+]([O-])c1cc([N+](=O)[O-])c([O-])c([N+](=O)[O-])c1[O-], the inhibition is reported as inactive: -19.9%.
With O=C(OCCN1CCN(CCOCc2ccccc2)CC1)C(O)(c1ccccc1)c1ccccc1 the inhibition was inactive: 0.55%.
In the case of O=C(OC1CN2CCC1CC2)c1ccc([N+](=O)[O-])cc1 (stereo unspecified), the inhibition is reported as inactive: -16.6%.
With CC(C)c1ccc(OP(C)(=O)Nc2ccc(SC(F)(F)F)cc2)cc1 (stereo unspecified) the inhibition was inactive: 1.3%.
With CP(=O)(Nc1ccccc1F)Oc1ccccc1 (stereo unspecified) the inhibition was inactive: 3.86%.
With O=[N+]([O-])c1cc([N+](=O)[O-])c(Nc2ccc(Cl)cc2)c([N+](=O)[O-])c1 the inhibition was active: 59.4%.
In the case of O=[N+]([O-])c1cc([N+](=O)[O-])c(C(F)(F)F)c([N+](=O)[O-])c1O, the inhibition is reported as inactive: -2.65%.
In the case of Cc1ccccc1NP(C)(=O)Nc1ccccc1C, the inhibition is reported as inactive: -3.16%.
For CP(=O)(Nc1ccc2c(c1)OCCO2)Oc1ccccc1 (stereo unspecified), the inhibition was active: 65.8%.
With CCOP(C)(=S)SCC(=O)NC(C)(CC)C(=O)O (stereo unspecified) the inhibition was inactive: -0.82%.
For CP(=O)(Nc1ccc(SC(F)(F)F)cc1)Oc1ccc(F)cc1 (stereo unspecified), the inhibition was inactive: 2.1%.
With Cc1c(C(c2ccc3c(c2)OCO3)c2c(C)n(C)n(-c3ccccc3)c2=O)c(=O)n(-c2ccccc2)n1C.O=[N+]([O-])c1cc([N+](=O)[O-])c(O)c([N+](=O)[O-])c1 the inhibition was inactive: 10.4%.
With Cc1cc(-c2cccc3ccccc23)c(C)cn1.O=[N+]([O-])c1cc([N+](=O)[O-])c(O)c([N+](=O)[O-])c1 the inhibition was inactive: 9.38%.
For O=[N+]([O-])c1cc([N+](=O)[O-])c(NCC2CCS(=O)(=O)C2)c([N+](=O)[O-])c1 (stereo unspecified), the inhibition was inactive: -7.52%.
In the case of O=[N+]([O-])c1ccc(OP2(=O)COCCO2)cc1 (stereo unspecified), the inhibition is reported as inactive: -2.64%.
With COc1ccc(NP(C)(=O)Oc2ccccc2OC)cc1 (stereo unspecified) the inhibition was inactive: 21.7%.
For CN(C)CCOC(=O)C(O)(c1ccccc1)C1CCCCC1 (stereo unspecified), the inhibition was inactive: -1.7%.
For COc1ccc(OP(C)(=O)Nc2cccc(Br)c2)cc1 (stereo unspecified), the inhibition was inactive: 4.46%.
For CP(=O)(OC12CC3CC(CC(C3)C1)C2)OC12CC3CC(CC(C3)C1)C2, the inhibition was inactive: 9.1%.
For CCOC(=O)c1ccc(NP(C)(=O)Oc2ccc(Cl)cc2)cc1 (stereo unspecified), the inhibition was inactive: 10.7%.
In the case of CN(C)C(=O)c1c([N+](=O)[O-])cc([N+](=O)[O-])cc1[N+](=O)[O-], the inhibition is reported as inactive: -10.2%.
With CP(=O)(Nc1ccc(Cl)cc1)Oc1ccc(F)cc1 (stereo unspecified) the inhibition was inactive: 6.81%.
In the case of CC(C)(C)c1ccc(OP(C)(=O)O)cc1, the inhibition is reported as inactive: -2.18%.
In the case of COc1ccccc1OP(C)(=O)Nc1ccccc1Br (stereo unspecified), the inhibition is reported as inactive: 14.5%.
In the case of CP(=O)(Oc1ccccc1)N1CCOC1=O (stereo unspecified), the inhibition is reported as inactive: 4.33%.
With CCc1ccc(OP(C)(=O)Nc2cccnc2)cc1 (stereo unspecified) the inhibition was inactive: 0.25%.
For COc1ccccc1OP(C)(=O)Nc1c(C)n(C)n(-c2ccccc2)c1=O (stereo unspecified), the inhibition was inactive: -15.1%.
With O=C(OCCCN1CCCC1)C(O)(c1ccccc1)C1CCCCC1 (stereo unspecified) the inhibition was inactive: -0.69%.
In the case of CCN(CC)CC(O)COC(=O)C(O)(c1ccccc1)C1CCCCC1 (stereo unspecified), the inhibition is reported as inactive: -2.76%.
For COc1ccc(OP(C)(=O)Nc2ccc(Br)cc2)cc1 (stereo unspecified), the inhibition was inactive: -9.14%.
For CCc1ccc(OP(C)(=O)O)cc1, the inhibition was inactive: -9%.
For CP(=O)(Nc1ccccn1)Oc1ccccc1 (stereo unspecified), the inhibition was inactive: 0.88%.
With COc1ccccc1OP(C)(=O)Nc1ccc(C)cc1C (stereo unspecified) the inhibition was inactive: -2.96%.
For O=[N+]([O-])c1cc([N+](=O)[O-])c(Nc2ccccn2)c([N+](=O)[O-])c1, the inhibition was inactive: 16.7%.
For Cc1c(NP(C)(=O)Oc2ccc(C(C)C)cc2)c(=O)n(-c2ccccc2)n1C (stereo unspecified), the inhibition was inactive: 2.72%.
For CN(C)CCOC(=O)C(O)(c1ccccc1)C1CCCC1 (stereo unspecified), the inhibition was inactive: 2.81%.
With COc1ccc(OP(C)(=O)Nc2ccccn2)cc1 (stereo unspecified) the inhibition was inactive: 14.5%.
In the case of COc1ccccc1OP(C)(=O)Nc1ccc(Br)cc1 (stereo unspecified), the inhibition is reported as inactive: 5.11%.
In the case of CP(=O)(OCCOc1ccccc1)OCCOc1ccccc1, the inhibition is reported as inactive: 2.68%.
With CP(=O)(Nc1ccc(Cl)cc1Cl)Oc1ccccc1 (stereo unspecified) the inhibition was inactive: -10%.
In the case of CCCCCCCCCCCCCCCC1C[N+](C)(C)CCOP(C)(=O)O1 (stereo unspecified), the inhibition is reported as inactive: -29.6%.
For COc1ccc(OP(C)(=O)Nc2ccccc2Br)cc1 (stereo unspecified), the inhibition was inactive: -8.38%.
In the case of COc1ccccc1OP(C)(=O)Nc1ccc(C)c(C)c1 (stereo unspecified), the inhibition is reported as inactive: -33.1%.
With O=C1C(O)=C([N+](=O)[O-])C(=O)C(O)=C1[N+](=O)[O-] the inhibition was inactive: 2.91%.
With Cc1cc(C)cc(OP(C)(=O)Nc2cccc(C(F)(F)F)c2)c1 (stereo unspecified) the inhibition was inactive: -3.41%.
